# Experimental data published in patent publication US20220354827A1 (priority 2019, published 2022).
# System: iPSCs derived immature neurons
# Conditions: glutamate 10 mM up to 30 mM, 24 hours; CONTROL, SAD, FAD neurons; dose-dependently
substance,measurement,value
glutamate,cell viability (MTT reduction),significant cell damage
